Earlier results in patent US5632983A, “Method for treating secondary immunodeficiency” (University of South Florida, priority 1994, dated 1997).

Columns and labels:
T lymphocyte [1] = conditions: mouse, in vivo; cited from earlier work
T lymphocyte [2] = conditions: rIL-2 in equivalent dose; cited from earlier work
malignant melanoma = conditions: low dose; rIL-2 in equivalent dose; cited from earlier work

rIL-2: non-glycosylated protein that is produced by the human cDNA sequence of Interleukin-2
inactive: T lymphocyte development in neonatal mice (T lymphocyte [1]) | T lymphocyte development and function in hydrocortisone-treated, aged mice (T lymphocyte [2]) | life in mice bearing malignant melanoma (malignant melanoma)
